SMILES strings stand for the structures.

Sequences of proteins named here, by UniProt entry; tags and fusion partners are left off. A change or cut given only in a name is not applied to a line headed by its entry. Residues count along the entry.
UniProt P79483, 30-266: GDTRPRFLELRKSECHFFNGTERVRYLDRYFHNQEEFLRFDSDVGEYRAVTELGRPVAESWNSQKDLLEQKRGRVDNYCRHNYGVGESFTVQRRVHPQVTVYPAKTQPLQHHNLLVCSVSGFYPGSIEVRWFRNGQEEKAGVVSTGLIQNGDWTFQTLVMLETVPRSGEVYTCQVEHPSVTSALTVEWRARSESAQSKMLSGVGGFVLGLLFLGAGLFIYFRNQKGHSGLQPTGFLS
UniProt Q30154, 30-266: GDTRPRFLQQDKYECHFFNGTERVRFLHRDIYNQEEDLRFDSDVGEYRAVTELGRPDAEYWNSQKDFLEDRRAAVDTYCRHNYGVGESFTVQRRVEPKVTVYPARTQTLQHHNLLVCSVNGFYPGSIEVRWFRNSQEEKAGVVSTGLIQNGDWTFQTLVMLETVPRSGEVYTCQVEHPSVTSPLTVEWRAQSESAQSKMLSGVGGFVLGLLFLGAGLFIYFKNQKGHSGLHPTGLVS

Targets include HLA-DR DRB1*0802 (DR8) (Homo sapiens, UniProt P01903+P01911, A100R/A103L/A169T/F76Y/H45Y/I96F/K41T/L162R/M171V/P40S/Q125H/Q178H/Q39Y/Q99D/R218S/R42G/S66Y/V115G/W38E); HLA-DR DRB3*0101 (DR52) (Homo sapiens, UniProt P01903+P79483); HLA-DR DRB1*0301 (DR3) (Homo sapiens, UniProt P01903+P01911, A100K/A102G/A103R/A169T/F55Y/I96L/K41T/L162R/M171V/P40S/Q125H/Q178H/Q39Y/R42S/S66N/T106N/T262R/W38E/Y61H).

Holding throughout (test): biochemical
Assay type in all cases: binding

For a further experiment, the target named is HLA-DR DRB1*0901 (DR9) (Homo sapiens, UniProt P01903+P01911, A100R/A103E/D57H/D86V/F55Y/F60I/F76Y/I96F/K127E/L162R/M171V/P40D/Q125H/Q99R/R33Q/R42F/S133A/S66N/T210M/V115G/W38K/Y107V/Y59G/Y89S). Particulars: DRB1 *0901.
In another experiment the target is HLA-DR DRB1*0405 (DR4) (Homo sapiens, UniProt P01903+P01911, A100R/A169T/D86S/F76Y/I96L/K127E/L162R/M171V/N62H/P40V/Q125Y/R42H/S133A/S149N/S66Y/V115G/V209L/W38E). Particulars: DRB1 *0405.
Another experiment deals with HLA-DR DRB4*0101 (DR53) (Homo sapiens, UniProt P01903+P13762, G164S). Particulars: DRB4 *0101.
In a further experiment the target is HLA-DR DRB1*0101 (DR1) (Homo sapiens, UniProt P01903+P01911, A100R/D57E/F55L/F60I/F76Y/I96L/L162R/M171V/P40L/Q125E/R42F/V115G/Y59C). Particulars: DRB1 *0101.
A further experiment deals with HLA-DR DRB1*1302 (DR13) (Homo sapiens, UniProt P01903+P01911, A100E/A169T/K41T/L162R/M171V/P40S/Q125H/Q178H/Q39Y/Q99D/R42S/S66N/T262R/V115G/W38E/Y61H). Conditions: DRBI *1302.
Another experiment concerns the target HLA-DR DRB1*1501 (DR15) (Homo sapiens, UniProt P01903+P01911). Conditions: DRBI *1501.
The next experiment deals with HLA-DR DRB5*0101 (DR51) (Homo sapiens, UniProt P01903+Q30154). Conditions: DRB5 *0101.
For the next experiment, the target named is HLA-DR DRB1*0401 (DR4) (Homo sapiens, UniProt P01903+P01911, A100K/A169T/F76Y/I96L/K127E/L162R/M171V/N62H/P40V/Q125Y/R42H/S133A/S149N/S66Y/V115G/V209L/W38E). Particulars: DRB1 *0401.
The next experiment addresses HLA-DR DRB1*1101 (DR11) (Homo sapiens, UniProt P01903+P01911, A100R/A169T/A87E/I96F/K41T/L162R/M171V/P40S/Q125H/Q178H/Q39Y/Q99D/R42S/S66Y/T262R/V115G/W38E). Conditions: DRB1 *1101.
For the next experiment, the target named is HLA-DR DRB1*0701 (DR7) (Homo sapiens, UniProt P01903+P01911, A100R/A102G/A103Q/D57E/D86V/E43K/F76Y/K127E/L162R/M171V/P40G/Q125H/Q99D/R33Q/R42Y/R54Q/S133A/S66F/T210M/V115G/Y107V/Y59L/Y89S). Particulars: DRB1 *0701.

Regarding `CC[C@H](C)[C@H](NC(=O)[C@@H](NC(=O)[C@@H]1CCCN1C(=O)[C@@H](N)Cc1ccccc1)[C@@H](C)O)C(=O)N1CCC[C@H]1C(=O)N[C@@H](CC(C)C)C(=O)N[C@@H](CO)C(=O)N[C@@H](CCCNC(=N)N)C(=O)N[C@@H](CC(C)C)C(=O)N[C@@H](Cc1ccccc1)C(=O)N[C@@H](CC(=O)O)C(=O)N[C@@H](CC(N)=O)C(=O)N[C@@H](C)C(=O)N[C@@H](CO)C(=O)N[C@@H](CC(C)C)C(=O)O`, the IC50 against HLA-DR DRB1*0802 (DR8) was determined as 4.97 µM; against HLA-DR DRB1*0901 (DR9), 9.88 µM; at HLA-DR DRB3*0101 (DR52), 2.58 µM; against HLA-DR DRB1*0405 (DR4) it was 7.21 µM; at HLA-DR DRB4*0101 (DR53), 0.194 µM; on HLA-DR DRB1*0101 (DR1), 8.07 µM. Further, the IC50 at HLA-DR DRB1*1302 (DR13) turned out to be 7.49 µM; on HLA-DR DRB1*1501 (DR15), 1.39 µM; against HLA-DR DRB5*0101 (DR51), 5.8 µM; on HLA-DR DRB1*0401 (DR4), 0.228 µM.
Consider `CC(C)C[C@H](NC(=O)CN)C(=O)N[C@@H](CCCNC(=N)N)C(=O)N[C@@H](CO)C(=O)N[C@@H](CC(C)C)C(=O)N[C@H](C(=O)N[C@H](C(=O)N[C@@H](CC(C)C)C(=O)N[C@@H](CC(C)C)C(=O)N[C@@H](CCCNC(=N)N)C(=O)N[C@@H](C)C(=O)N[C@@H](CC(C)C)C(=O)NCC(=O)N[C@@H](C)C(=O)N[C@@H](CCC(N)=O)C(=O)O)[C@@H](C)O)[C@@H](C)O`, for which the half-inhibitory concentration (IC50) at HLA-DR DRB1*0301 (DR3) was 2.35 µM; at HLA-DR DRB1*1101 (DR11), 0.0037 µM; against HLA-DR DRB1*0802 (DR8), 0.014 µM; on HLA-DR DRB3*0101 (DR52), 12.9 µM; at HLA-DR DRB1*0405 (DR4), 0.03 µM; at HLA-DR DRB1*0101 (DR1), 0.0085 µM. The IC50 on HLA-DR DRB1*1302 (DR13) came to 0.871 µM; against HLA-DR DRB5*0101 (DR51) it was 0.0027 µM; against HLA-DR DRB1*0401 (DR4), 0.024 µM.
Consider `CC[C@H](C)[C@H](N)C(=O)N[C@@H](CS)C(=O)N[C@@H](CC(=O)O)C(=O)N[C@@H](CO)C(=O)N[C@@H](CCCNC(=N)N)C(=O)N[C@H](C(=O)N[C@@H](CC(C)C)C(=O)N[C@@H](CCC(=O)O)C(=O)N[C@@H](CCCNC(=N)N)C(=O)N[C@@H](Cc1ccc(O)cc1)C(=O)N[C@@H](CC(C)C)C(=O)N[C@@H](CC(C)C)C(=O)N[C@@H](CCC(=O)O)C(=O)N[C@@H](C)C(=O)N[C@@H](CCCCN)C(=O)O)C(C)C`, for which the IC50 came out at 0.236 µM against HLA-DR DRB1*0301 (DR3); 2.94 µM against HLA-DR DRB1*1101 (DR11); 0.808 µM on HLA-DR DRB1*0802 (DR8); 16.2 µM at HLA-DR DRB3*0101 (DR52); 11 µM at HLA-DR DRB1*0405 (DR4); 8.55 µM at HLA-DR DRB4*0101 (DR53). Besides, the IC50 at HLA-DR DRB1*0101 (DR1) stood at 2.76 µM; against HLA-DR DRB1*1302 (DR13), 20.4 µM; against HLA-DR DRB1*1501 (DR15), 0.085 µM; against HLA-DR DRB5*0101 (DR51) it was 7.29 µM; at HLA-DR DRB1*0401 (DR4) it was 1.98 µM.
For `CC[C@H](C)[C@H](NC(=O)[C@@H](NC(=O)[C@H](CCCNC(=N)N)NC(=O)[C@H](CC(C)C)NC(=O)[C@@H]1CCCN1C(=O)[C@H](C)NC(=O)[C@H](C)NC(=O)[C@H](CO)NC(=O)[C@H](C)NC(=O)[C@H](C)NC(=O)[C@H](CC(=O)O)NC(=O)[C@@H]1CCCN1C(=O)[C@@H]1CCCN1)[C@@H](C)O)C(=O)N[C@H](C(=O)N[C@@H](C)C(=O)O)[C@@H](C)O`, the IC50 worked out at 14.9 µM against HLA-DR DRB1*0301 (DR3); 2.58 µM against HLA-DR DRB1*1101 (DR11); 8.67 µM against HLA-DR DRB1*0901 (DR9); 24.9 µM against HLA-DR DRB1*0701 (DR7); 10.6 µM at HLA-DR DRB3*0101 (DR52); 10.2 µM on HLA-DR DRB1*1302 (DR13). In addition, it took 1.12 µM to reach half-maximal inhibition against HLA-DR DRB5*0101 (DR51) (IC50).
On to `CC[C@H](C)[C@H](NC(=O)[C@H](Cc1ccc(O)cc1)NC(=O)[C@H](C)NC(=O)[C@H](CCC(=O)O)NC(=O)[C@H](CCC(=O)O)NC(=O)[C@H](Cc1ccccc1)NC(=O)[C@H](CCC(=O)O)NC(=O)[C@H](CCC(N)=O)NC(=O)[C@H](Cc1ccc(O)cc1)NC(=O)[C@@H](NC(=O)[C@H](CC(=O)O)NC(=O)[C@H](Cc1ccccc1)NC(=O)[C@H](C)NC(=O)[C@H](CC(C)C)NC(=O)[C@@H](N)CCC(N)=O)[C@@H](C)O)C(=O)O`, for which the IC50 against HLA-DR DRB1*0301 (DR3) was 7.98 µM; against HLA-DR DRB1*0701 (DR7) it was 2.58 µM; at HLA-DR DRB3*0101 (DR52) it was 0.595 µM; against HLA-DR DRB1*0405 (DR4) it was 5.4 µM; at HLA-DR DRB4*0101 (DR53) it was 11.5 µM; at HLA-DR DRB1*1302 (DR13) it was 15.2 µM. The molecule further showed an IC50 at HLA-DR DRB1*1501 (DR15) of 23.2 µM.
